# Data: publication PMC4811417, “Sulforaphane Suppresses Hepatitis C Virus Replication by Up-Regulating Heme Oxygenase-1 Expression through PI3K/Nrf2 Pathway” (PLoS ONE, 2016)
# Tests used:
# [1] = system: JFH-1 virus particle-infected Huh-7 cells; assay: Combination of SFN with antiviral drugs in HCV-infected cells (CalcuSyn2, Chou and Talalay); assay type: cell-based, Hepatitis C virus; settings: JFH-1-infected Huh-7 cells
# Experimental: (§1) HCV-infected and Ava5 cells were treated with serial concentrations of SFN (0, 1.25, 2.5, 5.0, 7.5 and 10.0 μM) combined respectively with or without IFN-α (7.5, 15, 30, and 60 U·mL^-1), telaprevir (0.075, 0.15, 0.3, and 0.6 μM), sofosbuvir (10, 20, 40, and 80 nM) or daclatasvir (1, 2, 4, and 8 pM) in a fixed ratio for 3 days. The anti-HCV activities of the different combinations were determined by qRT-PCR. The drug combination data were analyzed using CalcuSyn2™ software (Biosoft, Cambridge, UK) based on the method by Chou and Talalay. The multiple drug dose effects and combination index (CI) values were evaluated and presented as antagonism (CI > 1), additivity (CI = 1) or synergism (CI < 1).
# [2] = system: HCV subgenomic replicon in Ava5 cells; assay: Combination of SFN with antiviral drugs in replicon cells (CalcuSyn2, Chou and Talalay); assay type: cell-based, Hepatitis C virus
# Experimental: as §1
substance,measurement,setting,value
IFN-α: IFN-α-2a (Roferon-A) obtained from Roche Ltd,Influence,[1],Synergistic
same,CI values at ED75,"[1]; fixed ratio, 3 days",0.8
same,CI values at ED90,"[1]; fixed ratio, 3 days",0.4
same,Influence,[2],Synergistic
same,CI values at ED75,"[2]; fixed ratio, 3 days",0.8
same,CI values at ED90,"[2]; fixed ratio, 3 days",0.5
